# Values of other authors as cited in patent US20030139469A1, “Use of inhibitors of soluble epoxide hydrolase to inhibit vascular smooth muscle cell proliferation” (THE REGENTS OF THE UNIVERSITY OF CALIFORNIA, priority 2002, published 2003).
# By UniProt entry, the sequences of proteins in these tests, tags left out. Where a name states a change or a piece, a line headed by the entry shows the natural chain unless it says otherwise.
# UniProt P34914: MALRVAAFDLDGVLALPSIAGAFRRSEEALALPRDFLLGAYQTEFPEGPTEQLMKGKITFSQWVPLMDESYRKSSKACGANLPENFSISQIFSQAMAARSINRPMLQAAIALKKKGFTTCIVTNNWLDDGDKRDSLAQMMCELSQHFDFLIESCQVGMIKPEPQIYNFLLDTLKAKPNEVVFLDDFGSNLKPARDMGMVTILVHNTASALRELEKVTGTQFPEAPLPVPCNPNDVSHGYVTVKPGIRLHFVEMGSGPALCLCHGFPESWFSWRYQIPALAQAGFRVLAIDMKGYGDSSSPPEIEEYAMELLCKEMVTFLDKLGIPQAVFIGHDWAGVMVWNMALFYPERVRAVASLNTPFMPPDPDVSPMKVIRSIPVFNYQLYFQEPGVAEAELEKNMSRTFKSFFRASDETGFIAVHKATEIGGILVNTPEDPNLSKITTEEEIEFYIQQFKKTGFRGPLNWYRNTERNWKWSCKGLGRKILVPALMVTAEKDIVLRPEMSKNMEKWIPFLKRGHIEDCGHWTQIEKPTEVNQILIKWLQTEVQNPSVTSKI
# UniProt P80299: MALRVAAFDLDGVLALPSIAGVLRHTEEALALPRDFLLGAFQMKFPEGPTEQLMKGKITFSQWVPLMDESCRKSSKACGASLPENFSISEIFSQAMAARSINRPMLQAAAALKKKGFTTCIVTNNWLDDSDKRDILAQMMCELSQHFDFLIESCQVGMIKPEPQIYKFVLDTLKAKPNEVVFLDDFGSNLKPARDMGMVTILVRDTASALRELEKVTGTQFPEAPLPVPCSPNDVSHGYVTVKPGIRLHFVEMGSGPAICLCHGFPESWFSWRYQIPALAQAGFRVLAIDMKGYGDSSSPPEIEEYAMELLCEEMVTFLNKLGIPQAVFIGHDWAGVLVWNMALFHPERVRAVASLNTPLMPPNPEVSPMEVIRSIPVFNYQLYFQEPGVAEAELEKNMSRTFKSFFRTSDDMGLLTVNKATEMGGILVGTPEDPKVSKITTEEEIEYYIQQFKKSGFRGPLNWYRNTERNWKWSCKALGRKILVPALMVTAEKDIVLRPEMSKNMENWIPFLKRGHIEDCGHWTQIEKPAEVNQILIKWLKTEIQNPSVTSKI
# How the values were obtained:
# sEH [1] = biological target: sEH (Mus musculus, UniProt P34914); conditions: mice injected with DCU; cited from earlier work
# sEH [2] = biological target: sEH (Rattus norvegicus, UniProt P80299); conditions: spontaneously hypertensive rats; cited from earlier work
smiles,measurement,setting,value
"O=C(NC1CCCCC1)NC1CCCCC1 [DCU, N,N′-dicyclohexylurea]",EET levels,sEH [1],accumulation of EETs
same,"urinary 14,15-EET",sEH [2],increase
same,urinary DHET,sEH [2],decrease
